{"sequences": {"note": "The chains behind the UniProt entries cited, without tags or fusion partners. Residues count along the entry.", "UniProt P28843, 37-760 limits assumed": "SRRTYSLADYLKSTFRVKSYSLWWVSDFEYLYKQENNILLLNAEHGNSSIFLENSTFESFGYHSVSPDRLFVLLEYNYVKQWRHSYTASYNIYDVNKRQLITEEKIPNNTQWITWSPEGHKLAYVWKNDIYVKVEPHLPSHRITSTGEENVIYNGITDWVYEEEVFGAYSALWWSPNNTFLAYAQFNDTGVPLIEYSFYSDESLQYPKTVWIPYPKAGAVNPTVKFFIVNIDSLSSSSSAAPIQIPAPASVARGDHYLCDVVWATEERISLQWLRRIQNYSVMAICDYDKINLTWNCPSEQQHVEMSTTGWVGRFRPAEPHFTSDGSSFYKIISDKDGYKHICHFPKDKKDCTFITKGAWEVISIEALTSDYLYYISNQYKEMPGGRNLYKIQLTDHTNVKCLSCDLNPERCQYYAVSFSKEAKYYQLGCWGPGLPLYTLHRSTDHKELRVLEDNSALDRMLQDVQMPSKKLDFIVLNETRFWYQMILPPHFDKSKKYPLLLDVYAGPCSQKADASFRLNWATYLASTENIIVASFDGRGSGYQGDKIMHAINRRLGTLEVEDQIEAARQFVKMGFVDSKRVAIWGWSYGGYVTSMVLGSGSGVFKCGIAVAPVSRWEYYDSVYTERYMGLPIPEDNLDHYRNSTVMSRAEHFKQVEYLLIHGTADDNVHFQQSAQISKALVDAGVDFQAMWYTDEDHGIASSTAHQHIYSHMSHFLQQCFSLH"}, "source": "patent US20150284385A1", "about": "(published 2015)", "molecular_target": "DPP-4 (Mus musculus, UniProt P28843)", "experiment": "Plasma DPP-4 activity in mice after oral dosing", "assay_type": "in vivo, ICR mice", "note": "Where two headings read alike, the source gives them in different places."}
{"smiles": "N[C@@H](CC(=O)N1CCn2c(nnc2C(F)(F)F)C1)Cc1cc(F)c(F)cc1F", "note": "[MK0431, reference compound]", "values": [{"measurement": "activity at 1 mg/kg", "setting": "read-out: DPP-4 Relative activity %, Table 3, mice plasma, oral 1 mg/kg, 1 h after dosing", "result": "58.3 ± 8.4", "unit": "%"}, {"measurement": "activity at 1 mg/kg", "setting": "read-out: DPP-4 Relative activity %, Table 3, mice plasma, oral 1 mg/kg, 2 h after dosing", "result": "59.9 ± 4", "unit": "%"}, {"measurement": "activity at 1 mg/kg", "setting": "read-out: DPP-4 Relative activity %, Table 3, mice plasma, oral 1 mg/kg, 4 h after dosing", "result": "60.8 ± 9.8", "unit": "%"}, {"measurement": "activity at 1 mg/kg", "setting": "read-out: DPP-4 Relative activity %, Table 3, mice plasma, oral 1 mg/kg, 6 h after dosing", "result": "79.5 ± 4.1", "unit": "%"}, {"measurement": "activity at 1 mg/kg", "setting": "read-out: DPP-4 Relative activity %, Table 3, mice plasma, oral 1 mg/kg, 9 h after dosing", "result": "89.5 ± 5.9", "unit": "%"}, {"measurement": "activity at 1 mg/kg", "setting": "read-out: DPP-4 Relative activity %, Table 3, mice plasma, oral 1 mg/kg, 12 h after dosing", "result": "93.5 ± 6.5", "unit": "%"}, {"measurement": "activity at 1 mg/kg", "setting": "read-out: DPP-4 Relative activity %, Table 3, mice plasma, oral 1 mg/kg, 24 h after dosing", "result": "102 ± 6.6", "unit": "%"}, {"measurement": "activity at 1 mg/kg", "setting": "read-out: DPP-4 Relative activity %, Table 4 Test 1, mice plasma, oral 1 mg/kg, 1 h after dosing", "result": "58.3 ± 8.4", "unit": "%"}, {"measurement": "activity at 1 mg/kg", "setting": "read-out: DPP-4 Relative activity %, Table 4 Test 1, mice plasma, oral 1 mg/kg, 2 h after dosing", "result": "59.9 ± 4", "unit": "%"}, {"measurement": "activity at 1 mg/kg", "setting": "read-out: DPP-4 Relative activity %, Table 4 Test 1, mice plasma, oral 1 mg/kg, 4 h after dosing", "result": "60.8 ± 9.8", "unit": "%"}, {"measurement": "activity at 1 mg/kg", "setting": "read-out: DPP-4 Relative activity %, Table 4 Test 1, mice plasma, oral 1 mg/kg, 6 h after dosing", "result": "79.5 ± 4.1", "unit": "%"}, {"measurement": "activity at 1 mg/kg", "setting": "read-out: DPP-4 Relative activity %, Table 4 Test 1, mice plasma, oral 1 mg/kg, 9 h after dosing", "result": "89.5 ± 5.9", "unit": "%"}, {"measurement": "activity at 1 mg/kg", "setting": "read-out: DPP-4 Relative activity %, Table 4 Test 1, mice plasma, oral 1 mg/kg, 12 h after dosing", "result": "93.5 ± 6.5", "unit": "%"}, {"measurement": "activity at 1 mg/kg", "setting": "read-out: DPP-4 Relative activity %, Table 4 Test 1, mice plasma, oral 1 mg/kg, 24 h after dosing", "result": "102 ± 6.6", "unit": "%"}, {"measurement": "activity at 1 mg/kg", "setting": "read-out: DPP-4 Relative activity %, Table 4 Test 2, mice plasma, oral 1 mg/kg, 1 h after dosing", "result": "59 ± 2.9", "unit": "%"}, {"measurement": "activity at 1 mg/kg", "setting": "read-out: DPP-4 Relative activity %, Table 4 Test 2, mice plasma, oral 1 mg/kg, 2 h after dosing", "result": "61.3 ± 4.5", "unit": "%"}, {"measurement": "activity at 1 mg/kg", "setting": "read-out: DPP-4 Relative activity %, Table 4 Test 2, mice plasma, oral 1 mg/kg, 4 h after dosing", "result": "62.8 ± 5.5", "unit": "%"}, {"measurement": "activity at 1 mg/kg", "setting": "read-out: DPP-4 Relative activity %, Table 4 Test 2, mice plasma, oral 1 mg/kg, 6 h after dosing", "result": "67.1 ± 2.4", "unit": "%"}, {"measurement": "activity at 1 mg/kg", "setting": "read-out: DPP-4 Relative activity %, Table 4 Test 2, mice plasma, oral 1 mg/kg, 9 h after dosing", "result": "81 ± 4.3", "unit": "%"}, {"measurement": "activity at 1 mg/kg", "setting": "read-out: DPP-4 Relative activity %, Table 4 Test 2, mice plasma, oral 1 mg/kg, 12 h after dosing", "result": "78.7 ± 2.1", "unit": "%"}, {"measurement": "activity at 1 mg/kg", "setting": "read-out: DPP-4 Relative activity %, Table 4 Test 2, mice plasma, oral 1 mg/kg, 24 h after dosing", "result": "95.3 ± 5.8", "unit": "%"}, {"measurement": "activity at 1 mg/kg", "setting": "read-out: DPP-4 Relative activity %, Table 4 Test 3, mice plasma, oral 1 mg/kg, 1 h after dosing", "result": "60.1 ± 2.6", "unit": "%"}, {"measurement": "activity at 1 mg/kg", "setting": "read-out: DPP-4 Relative activity %, Table 4 Test 3, mice plasma, oral 1 mg/kg, 2 h after dosing", "result": "54.4 ± 1.2", "unit": "%"}, {"measurement": "activity at 1 mg/kg", "setting": "read-out: DPP-4 Relative activity %, Table 4 Test 3, mice plasma, oral 1 mg/kg, 4 h after dosing", "result": "57.6 ± 3.3", "unit": "%"}, {"measurement": "activity at 1 mg/kg", "setting": "read-out: DPP-4 Relative activity %, Table 4 Test 3, mice plasma, oral 1 mg/kg, 6 h after dosing", "result": "60.9 ± 3.8", "unit": "%"}, {"measurement": "activity at 1 mg/kg", "setting": "read-out: DPP-4 Relative activity %, Table 4 Test 3, mice plasma, oral 1 mg/kg, 9 h after dosing", "result": "70.2 ± 4.6", "unit": "%"}, {"measurement": "activity at 1 mg/kg", "setting": "read-out: DPP-4 Relative activity %, Table 4 Test 3, mice plasma, oral 1 mg/kg, 12 h after dosing", "result": "72.9 ± 2.4", "unit": "%"}, {"measurement": "activity at 1 mg/kg", "setting": "read-out: DPP-4 Relative activity %, Table 4 Test 3, mice plasma, oral 1 mg/kg, 24 h after dosing", "result": "94 ± 7", "unit": "%"}, {"measurement": "activity at 3 mg/kg", "setting": "read-out: DPP-4 Relative activity %, mice plasma, oral 3 mg/kg, 1 h after dosing", "result": "43.9 ± 1.9", "unit": "%"}, {"measurement": "activity at 3 mg/kg", "setting": "read-out: DPP-4 Relative activity %, mice plasma, oral 3 mg/kg, 2 h after dosing", "result": "45.7 ± 1.2", "unit": "%"}, {"measurement": "activity at 3 mg/kg", "setting": "read-out: DPP-4 Relative activity %, mice plasma, oral 3 mg/kg, 3 h after dosing", "result": "46.9 ± 1.4", "unit": "%"}, {"measurement": "activity at 3 mg/kg", "setting": "read-out: DPP-4 Relative activity %, mice plasma, oral 3 mg/kg, 5 h after dosing", "result": "60.9 ± 2.8", "unit": "%"}]}
